{"source": "patent US10869850B2", "about": "“Nitrated-fatty acids modulation of type II diabetes” (University of Pittsburgh—Of the Commonwealth System of …, priority 2007, dated 2020)", "target": "PPAR-γ (Homo sapiens, UniProt P37231)", "experiment": "PPAR-γ agonist potency", "conditions": "relative to nitro linoleic acid"}
{"substance": "9- or 10-nitro octadecenoic acid [nitro oleic acid]", "values": [{"measurement": "potency as an agonist of PPAR-γ", "value": "more potent as an agonist of PPAR-γ, relative to nitro linoleic acid"}]}
